# Measured affinities in a library of Ab-14 light chain variants

Data: MIT Lincoln Laboratory AlphaSeq set, Li et al. 2023, doi:10.1038/s41467-023-39022-2, as distributed in FLAb.

All variants were tested on one target, the spike HR2 peptide PDVDLGDISGINAS (SARS-CoV-2).

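The starting antibody came from a phage panning campaign against this peptide. These sequences belong to a second round, designed from the earlier measurements on random variants of the parent. Several design methods are mixed in this list. AlphaSeq pools MATa yeast showing the antibodies with MATalpha yeast showing the peptide. Binding brings cells together so that they mate, and sequencing counts the barcode pairs among the diploids. Each replicate has its own calibration line, from reference interactions of the BCL2 family. There are six technical replicates.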

Parent: Ab-14, a human scFv built as VH, the linker GGGGSGGGGSGGGGS, VL. Only the CDRs of the light chain vary.
VH: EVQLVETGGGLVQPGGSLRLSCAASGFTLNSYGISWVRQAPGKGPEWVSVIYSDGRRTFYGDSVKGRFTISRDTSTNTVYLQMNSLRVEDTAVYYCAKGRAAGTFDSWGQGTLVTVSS
VL: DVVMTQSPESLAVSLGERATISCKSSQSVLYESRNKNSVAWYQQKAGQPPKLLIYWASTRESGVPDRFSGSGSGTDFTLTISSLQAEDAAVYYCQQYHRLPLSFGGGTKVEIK

Variants are written as CDR1, CDR2 and CDR3 of the light chain (limits as in the source). Parent: KSSQSVLYESRNKNSVA, WASTRES, QQYHRLPLS.
This list holds designs with more than six substitutions.
Affinities are written as log10 Kd with Kd in nM; a lower number is a better binder.
Replicates are averaged; those with no signal do not enter the mean.
An entry "nd" has no value in the source: the pair was not observed among the diploids in any replicate. This suggests poor binding but is not conclusive.
The list is sorted by this average, lowest first, undetected variants last.
Values of this round are not directly comparable with the first-round values of the same sequences.
The parent sequence was in this pool as ten entries: three were never detected, three once, and four in most replicates, with averages from 0.34 to 2.37.
The authors averaged sequences with at least three values out of six and counted those with two or fewer as poor binders.
As a blank, each scFv also met three strains without target: over all light chain designs, 4% of these pairings were detected, typically at 2.64 and seldom below 1.59.

With KVDQLGDMESRNKNAVA | SASTRES | QQYHRLPLS the result was -0.25 (6 of 6 replicates). The variant KLSQSMLYESRVKNNVA | DAHQRES | QMYHRLPLS showed -0.09 (6 of 6 replicates). The variant SLVQEKSVGDYNAGNIA | AGNQLSV | QQYNRLPLS showed -0.01 (6 of 6 replicates). With IIPQSWLGEWRNKNSVA | NASQRES | QQYHRLPLS the result was 0.02 (6 of 6 replicates). The variant KVYQSSLYESRNDNNVA | NASYRES | QQYHRLPLS showed 0.05 (6 of 6 replicates). The variant KLFQSNEYESRNKNSVA | NASQREW | QQYHRLPLS gave 0.06 (6 of 6 replicates).

The variant KSSASQEYEDRNKNSVA | HASTRLQ | QQYHRLPLS gave 0.16 (6 of 6 replicates). For KMQQSEGMESRNKNSVA | HASLRLE | QQYHRLPLS, the assay gave 0.19 (6 of 6 replicates). For MMSYGWLYGSRNKRNVA | DRETRMS | QQYDRLPLS, the assay gave 0.23 (6 of 6 replicates). For KVDFLGDYESRNKNSVA | SASTRES | QQYHRLPLS, the assay gave 0.24 (6 of 6 replicates). The variant MISDLTMYGSRKKNSVA | DLSTRGS | QQYHRLPLS gave 0.29 (6 of 6 replicates). The variant KLSKSVMYESRMKNSVA | MASTRYE | QQYHRLPLS gave 0.29 (6 of 6 replicates).

For RFDAAMPYANSNINSIA | EKAIQAD | QQYNRLPLS, the assay gave 0.30 (6 of 6 replicates). For KLDYSWPGESRNKNSVA | DASTRES | QQYHRLPLS, the assay gave 0.34 (6 of 6 replicates). With KHSPSEEYESRDKNSVA | HASTRMS | QQYHRLPLS the result was 0.39 (6 of 6 replicates). With KLYDMAALTMNNIRNVA | DNDTRVD | QQYHRLPLS the result was 0.42 (6 of 6 replicates). The variant KAMWSWLYWSRNKNSVA | NASQREH | QQYHRLPLS gave 0.42 (6 of 6 replicates). With NLKEMEGTNQTKHGNIA | SVDQRMT | QQYFRLPLI the result was 0.48 (6 of 6 replicates).

With MLRFDITDGQKNWNNIA | ETSELGA | QQYAHLPLG the result was 0.52 (6 of 6 replicates). With HMSMLTLGGMRARNSVA | QMTTREN | QQYDRLPLS the result was 0.52 (6 of 6 replicates). The variant KLSQVTHSEHKVKNSIA | EMVTREK | QQYDRLPLS gave 0.62 (6 of 6 replicates). The variant IISQVDDYESRNKNSIA | DQQTRGS | QQYDRLPLS gave 0.62 (6 of 6 replicates). The variant KLAQVTGYESYVRNSVA | QMSTRAE | QDYNRLPLS gave 0.70 (6 of 6 replicates). The variant TISGVMMQMSHSKNNVA | EVSMRLD | QQYVRLPLE showed 0.71 (6 of 6 replicates).

With EMLYMDNSVGLQKDSIA | EAEQVME | QQYFRLPLV the result was 0.91 (6 of 6 replicates). With KLEWSQLYWSRNCNSVA | NASTRES | QQYWRLPLS the result was 0.94 (6 of 6 replicates). The variant TISQMTSLFSMSINNVA | EVSTRET | QQYDRLPLA gave 0.97 (6 of 6 replicates). For KLQQSVGMESWNVNNVA | AASTRED | QQYHRLPLS, the assay gave 1.26 (6 of 6 replicates). The variant KLSYAVGGESRNKSSLA | DNSTRES | QQYHRLPLS gave 1.31 (6 of 6 replicates). With RFDMAMPHAHSNINSIA | EDAIQAD | QQYDRLPLS the result was 1.38 (2 of 6 replicates).

For KLRLSTHIESFNKNNVA | EMTTRES | QSYDRLPLS, the assay gave 1.39 (6 of 6 replicates). For SLEPFEYQIMKDLNNIA | NTQVRAN | QQYMRLPIM, the assay gave 1.45 (6 of 6 replicates). The variant MISQLFMYGSRQYNSIA | QAETREK | QQYDRLPLE gave 1.53 (6 of 6 replicates). For IISGSMLVESKHKNSVA | NAETREY | QHYDRLPLS, the assay gave 1.56 (6 of 6 replicates). The variant KISQMFNVGTKNTNSLA | EMNTRGM | QDYHRLPLS gave 1.58 (6 of 6 replicates). The variant KLSISHQVESINKSNVA | EMVTRES | QQYNRLPLS gave 1.62 (6 of 6 replicates).

The variant MISQVLNTLSKTGNNVA | DLAERED | QQYFRLPLS gave 1.71 (6 of 6 replicates). For KLSWKSLGFENEWMAIA | NTKERNA | QQYARLPLS, the assay gave 1.72 (6 of 6 replicates). For KITQMYRYEQQNSSSIA | EANTREQ | QSYHRLPLS, the assay gave 1.75 (6 of 6 replicates). For AIVEDNAGEQKNSSNIA | SVDQRED | QQYQRLPLM, the assay gave 1.75 (5 of 6 replicates). With KIRNDFMESKQNQSNIA | GHHESIK | QQYSMLPLS the result was 1.91 (6 of 6 replicates). The variant FFSLIQGSYGEANNSIA | ERNERAM | QQYGRLPLV showed 2.11 (4 of 6 replicates).

The variant MIAETVGYQSRNKNSVA | DNSTRED | QCYDRLPLS showed 2.33 (1 of 6 replicates). For HISQSVGMTARNKNSVA | ENSTRED | QQYDRLPLS, the assay gave 2.36 (3 of 6 replicates). The variant IISQMFLGESRNRNSVA | QASTRES | QSYDRLPLS gave 3.11 (4 of 6 replicates). For KLAMYLEMWARTKHAIA | NANLKTS | QQYNRLPIS, the assay gave nd (0 of 6 replicates). With MVSQLMLWGMHVKNSIA | EAVTRIN | QQYDRLPLI the result was nd (0 of 6 replicates). With TISQSTYWESFNKNSVA | QTSTRAE | QDYDRLPLS the result was nd (0 of 6 replicates).

Top 6 of the variants detected in all replicates, tightest first:

| CDR-L1 | CDR-L2 | CDR-L3 | log10 Kd (nM), mean | seen in |
|---|---|---|---|---|
| KVDQLGDMESRNKNAVA | SASTRES | QQYHRLPLS | -0.25 | 6/6 |
| KLSQSMLYESRVKNNVA | DAHQRES | QMYHRLPLS | -0.09 | 6/6 |
| SLVQEKSVGDYNAGNIA | AGNQLSV | QQYNRLPLS | -0.01 | 6/6 |
| IIPQSWLGEWRNKNSVA | NASQRES | QQYHRLPLS | 0.02 | 6/6 |
| KVYQSSLYESRNDNNVA | NASYRES | QQYHRLPLS | 0.05 | 6/6 |
| KLFQSNEYESRNKNSVA | NASQREW | QQYHRLPLS | 0.06 | 6/6 |